# Patent US20260131009A1, “BIFUNCTIONAL PI3K-ALPHA INHIBITORS AND USES THEREOF” (Relay Therapeutics, Inc., priority 2021, published 2026)
# Sequences of proteins named here, by UniProt entry; tags and fusion partners are left off.
# UniProt P42336, whole entry H1047R: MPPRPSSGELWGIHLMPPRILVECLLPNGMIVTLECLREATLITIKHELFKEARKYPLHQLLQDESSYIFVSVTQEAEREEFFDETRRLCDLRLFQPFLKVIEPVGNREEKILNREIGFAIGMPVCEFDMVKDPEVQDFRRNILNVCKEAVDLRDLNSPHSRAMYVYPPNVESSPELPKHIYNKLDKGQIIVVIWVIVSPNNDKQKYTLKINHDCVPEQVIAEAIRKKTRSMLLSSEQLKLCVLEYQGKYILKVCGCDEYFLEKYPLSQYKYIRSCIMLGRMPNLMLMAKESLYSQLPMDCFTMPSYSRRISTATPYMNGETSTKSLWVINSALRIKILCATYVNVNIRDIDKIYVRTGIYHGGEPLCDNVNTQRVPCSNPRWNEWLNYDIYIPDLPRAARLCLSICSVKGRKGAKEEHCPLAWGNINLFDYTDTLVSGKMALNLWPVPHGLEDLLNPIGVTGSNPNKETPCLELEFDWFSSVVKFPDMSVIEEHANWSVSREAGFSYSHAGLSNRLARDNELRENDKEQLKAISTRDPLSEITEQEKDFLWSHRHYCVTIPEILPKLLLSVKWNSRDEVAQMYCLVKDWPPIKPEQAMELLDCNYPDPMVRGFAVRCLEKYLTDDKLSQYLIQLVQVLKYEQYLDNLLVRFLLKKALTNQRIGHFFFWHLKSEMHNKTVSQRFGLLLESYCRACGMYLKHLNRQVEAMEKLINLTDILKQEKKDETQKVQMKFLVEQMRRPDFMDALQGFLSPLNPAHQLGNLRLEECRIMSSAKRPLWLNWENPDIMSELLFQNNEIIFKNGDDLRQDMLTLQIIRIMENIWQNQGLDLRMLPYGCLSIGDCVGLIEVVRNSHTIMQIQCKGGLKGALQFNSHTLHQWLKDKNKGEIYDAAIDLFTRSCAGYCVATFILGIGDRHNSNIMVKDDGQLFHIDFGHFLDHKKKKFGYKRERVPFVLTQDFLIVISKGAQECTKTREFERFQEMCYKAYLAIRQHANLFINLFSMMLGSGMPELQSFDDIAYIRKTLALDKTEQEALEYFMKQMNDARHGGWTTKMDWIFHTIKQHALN
# UniProt P27986, whole entry partner: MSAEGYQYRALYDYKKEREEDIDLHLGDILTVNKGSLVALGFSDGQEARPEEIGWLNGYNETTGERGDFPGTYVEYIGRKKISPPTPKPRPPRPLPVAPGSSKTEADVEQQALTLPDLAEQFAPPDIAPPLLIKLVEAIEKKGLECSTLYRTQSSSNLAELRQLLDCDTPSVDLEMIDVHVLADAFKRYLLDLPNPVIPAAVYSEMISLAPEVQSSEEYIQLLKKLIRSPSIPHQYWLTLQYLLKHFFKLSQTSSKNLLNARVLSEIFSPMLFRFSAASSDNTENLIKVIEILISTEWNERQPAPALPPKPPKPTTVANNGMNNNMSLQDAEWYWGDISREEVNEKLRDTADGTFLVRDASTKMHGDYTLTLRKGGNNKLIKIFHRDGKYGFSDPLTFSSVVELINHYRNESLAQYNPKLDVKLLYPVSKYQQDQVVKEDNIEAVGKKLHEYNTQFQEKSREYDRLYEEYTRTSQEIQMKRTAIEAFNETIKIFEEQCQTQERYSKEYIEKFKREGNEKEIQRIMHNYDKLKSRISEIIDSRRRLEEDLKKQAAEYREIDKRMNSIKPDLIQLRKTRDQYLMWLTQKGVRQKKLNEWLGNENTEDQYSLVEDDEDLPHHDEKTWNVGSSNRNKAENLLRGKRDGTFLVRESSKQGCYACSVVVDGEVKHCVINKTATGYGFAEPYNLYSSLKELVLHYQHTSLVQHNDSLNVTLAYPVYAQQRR
# Experiments:
# PI3Kα = PI3Kα (Homo sapiens, UniProt P42336, H1047R); test: ADP-Glo IC50 assay; assay type: biochemical; conditions: read-out: ADP-Glo IC50; class symbols; key not given
# MCF10A = MCF10A IC50 assay; assay type: cell-based; conditions: read-out: MCF 10A IC50; class symbols; key not given
# Outline: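 MCF10A cells overexpressing hotspot PIK3CA mutations were seeded at 5,000 per well in supplemented DMEM/F12 and adhered overnight (37 °C, 5% CO₂). Compounds were added acoustically as 12-dose 1:3 series, in duplicate, for 2 hours. Cells were lysed 60 min, then incubated 4 hours at room temperature with CisBio phospho-AKT (Ser473) HTRF antibodies and read on an Envision 2105. IC₅₀ for AKT phosphorylation came from Genedata software and was reported as binned categories.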
SMILES,IC50 (PI3Kα),IC50 (MCF10A)
Cc1ccccc1Nc1ncc(C(=O)NCCCC(=O)NCc2ccc3c(c2)CN(C2CCC(=O)NC2=O)C3=O)cc1NC(=O)c1csc2ccccc12 (centres unmarked),100 to 500 nM,–
Cc1ccccc1Nc1ncc(C(=O)NCCCCCCNc2ccc3c(c2)C(=O)N(C2CCC(=O)NC2=O)C3=O)cc1NC(=O)c1csc2ccccc12 (centres unmarked),100 to 500 nM,–
Cc1ccccc1Nc1ncc(C(=O)NCCCCCCCCNc2cccc3c2C(=O)N(C2CCC(=O)NC2=O)C3=O)cc1NC(=O)c1csc2ccccc12 (centres unmarked),100 to 500 nM,–
Cc1ccccc1Nc1ncc(C(=O)NCCOCCOCCOCCOCCOCCC(=O)NCc2ccc3c(c2)CN(C2CCC(=O)NC2=O)C3=O)cc1NC(=O)c1csc2ccccc12 (centres unmarked),1000 to 10000 nM,–
Cc1ccccc1Nc1ncc(C(=O)NCCOCCOCCOCCOCC(=O)N[C@H](C(=O)N2C[C@H](O)C[C@H]2C(=O)NCc2ccc(-c3scnc3C)cc2)C(C)(C)C)cc1NC(=O)c1csc2ccccc12,1000 to 10000 nM,–
Cc1ncsc1-c1ccc([C@H](C)NC(=O)[C@@H]2C[C@@H](O)CN2C(=O)[C@@H](NC(=O)CCCCCCCCCNC(=O)c2cnc(Nc3cc(F)ccc3Cl)c(NC(=O)c3csc4ccccc34)c2)C(C)(C)C)cc1,100 to 500 nM,10 to 36 µM
Cc1cc([C@@H](C)Nc2ccccc2C(=O)O)c2oc(N3CCN(C(=O)CCNc4cccc5c4C(=O)N(C4CCC(=O)NC4=O)C5=O)CC3)cc(=O)c2c1 (some centres unmarked) [Example I-135],100 to 500 nM,–
